Test results taken from PubChem BioAssay AID2252 (Southern Research Specialized Biocontainment Screening …, 2010).

Test system: THP-1 viability, CellTiter-Glo luminescence, 72 h
Test: PubChem AID 2252

SMILES | EC50 [µM]
O=C(Nc1cccnc1)c1ccc([N+](=O)[O-])o1 | 8.83
CC(C)(C)c1nnc(N/N=C/c2cc(Br)ccc2O)n(N)c1=O | 0.38
O=C(NNC(=S)Nc1ccc(Cl)c(Cl)c1)c1ccccn1 | 1.89
O=C(N/N=C/c1ccc([N+](=O)[O-])o1)C1CC1 | 30.8
